Test results published in paper PMC3378255 (ACS chemical neuroscience, 2012).

Amino acid sequences for entries named in this document (tags omitted). A change or cut given only in a name is not applied to a line headed by its entry.
UniProt P41145: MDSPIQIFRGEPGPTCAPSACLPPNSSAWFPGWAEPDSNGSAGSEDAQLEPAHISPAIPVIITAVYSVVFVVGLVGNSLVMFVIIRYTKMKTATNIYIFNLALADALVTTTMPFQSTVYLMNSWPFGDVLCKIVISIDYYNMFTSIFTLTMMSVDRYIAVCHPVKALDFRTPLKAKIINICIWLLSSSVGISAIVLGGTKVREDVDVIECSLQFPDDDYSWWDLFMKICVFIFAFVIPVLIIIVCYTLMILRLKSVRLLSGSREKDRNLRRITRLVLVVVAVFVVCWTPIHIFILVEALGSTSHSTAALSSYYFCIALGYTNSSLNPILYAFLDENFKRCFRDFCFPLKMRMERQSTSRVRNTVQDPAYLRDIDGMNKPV

Tests used:
[1] = molecular target: kappa (κ) opioid receptor (KOR) (Homo sapiens, UniProt P41145); assay: KOR DiscoveRx β-arrestin PathHunter assay, antagonist mode; format: cell-based; conditions: IC50, KOR antagonist HTS campaign hits
[2] = molecular target: KOR (Homo sapiens, UniProt P41145); assay: KOR antagonist high content imaging β-arrestin translocation assay; format: cell-based; conditions: high content imaging assays

Row | SMILES | IC50 [1] [nM] | selective for the KOR over both the DOR and MOR [2]
1 | Cc1ccc(S(=O)(=O)NCc2ccc(C(=O)NCCN(Cc3ccccc3)C(C)C)cc2)cc1 [3{1}, N-(2-(Benzyl(isopropyl)amino)ethyl)-4-((4-methylphenylsulfonamido)methyl)benzamide] | < 1000 | –
2 | COc1ccc(N2CCN(CCCNC(=O)Cn3c(=O)c4cccn4c4c(C)ccnc43)CC2)cc1 [4{13}, N-(3-(4-(4-Methoxyphenyl)piperazin-1-yl)propyl)-2-(1-methyl-6-oxopyrido[2,3-e]pyrrolo[1,2-a]pyrazin-5(6H)-yl)acetamide] | – | over 10,000 fold
